Tests used:
[1] = molecular target: T1, human carbonic anhydrase II, HCAII (Homo sapiens, UniProt P00918); assay: Surface plasmon resonance-based steady state affinity, immobilized HCAII; format: binding
Experimental: The solid line represents the theoretical curve for equilibrium response as a function of peptide concentration with Kd=0.08 μM (bimolecular interaction model). Experimental data from duplicate measurements are shown.
[Taylor, P. W.; King, R. W.; Burgen, A. S. V. Biochemistry 1970, 9, 2638-2645] […] With benzenesulfonamide derivatives bearing alkyl chains of different lengths in the para position, increased affinities towards HCAII as compared to that of Ia have been reported [King, R. W.; Burgen, A. S. V. Proc. R. Soc. Lond. B 1976, 193, 107-125]. Thus, to increase the affinity of the benzenesulfonamide inhibitor, and to minimize sterical constraints upon HCAII binding that could be introduced by coupling the benzenesulfonamide ligand to the peptide, an aliphatic spacer was introduced. […] 1.4 equivalents of Id were allowed to react with 1 equivalent of KE2-P or KE3-P in 50 mM Tris-HCl buffer at pH 8.0 and room temperature. The modified peptides KE2-PL and KE3-PL were purified by reversed-phase HPLC on a Hichrom C-8-column using 0.1% TFA in 40% aqueous 2-propanol as the eluent and lyophilized. The yield was 55% and 77% for KE2-PL and KE3-PL, respectively. […]

[2] = molecular target: T1, human carbonic anhydrase II, HCAII; assay: Fluorescence titration of peptide with HCAII (two-state / bimolecular binding model); conditions: 1 μM KE2-PL and 2 μM HCAII, based on Kd 0.02 μM
Experimental: The affinity of the interaction was estimated to be 0.02 μM from curve fitting using a two-state binding model.
Upon titration of 1 μM KE2-PL with 5 nM-50 μM HCAII, a sigmoid curve was obtained, FIG. 3. For the bimolecular association between KE2-PL and HCAII, the equilibrium dissociation constant Kd equals the concentration of free HCAII at the inflexion point. Kd was estimated to be 0.02 μM from the best fit to the experimental results of an equation describing the dissociation of a bimolecular complex. […] The use of an array of peptides modified with ligands of different affinities, makes measurements of analyte concentrations possible, at levels of accuracy limited, in principle, only by the number of different ligand variants available, and by the affinity range of those variants.

Row | Substance | Kd, preliminary surface plasmon resonance-based affinity measurements [1] | fraction of peptide bound to HCAII [2]
1 | KE2-PL modified with Ib: KE2 with fluorescent probe and 4-carboxybenzenesulfonamide ligand attached via active ester Ib, without spacer (NAADLEAAIRHLAEKLAARGPVDAAQLAEQLAKKFEAFARAG) | in the μM range | –
2 | KE2-PL: KE2 with dansyl probe at Lys15 and benzenesulfonamide ligand with aliphatic spacer (from Id) at Lys34 (NAADLEAAIRHLAEKLAARGPVDAAQLAEQLAKKFEAFARAG) | – | more than 90%

Source: patent US7569661B2, “Polypeptide scaffolds and use thereof” (Modpro AB, priority 2002, dated 2009)
